The experiment concerns the target carboxypeptidase U (Homo sapiens, UniProt Q96IY4). As to the kind of experiment: carboxypeptidase U inhibition assay (Hendriks et al., Clin. Chem. 1985), substrate concentration 4 mM. Conditions: substrate concentration of 4 mM. The procedure:
The inhibiting effect of the compounds of the present invention was estimated using the assay described in: Dirk Hendriks, Simon Scharpé and Marc van Sande, Clinical Chemistry, 31, 1936-1939 (1985); and Wei Wang, Dirk F. Hendriks, Simon S. Scharpé, The Journal of Biological Chemistry, 269, 15937-15944 (1994), using a substrate concentration of 4 mM.
The activities of certain Examples in the assay described in: Dirk Hendriks, Simon Sharpé and Marc van Sande, Clinical Chemistry, 31, 1936-1939 (1985), using a substrate concentration of 4 mM, are presented in Table I below.

The chains behind the UniProt entries cited, without tags or fusion partners. Residues count along the entry.
UniProt Q96IY4, 115-423 limits assumed: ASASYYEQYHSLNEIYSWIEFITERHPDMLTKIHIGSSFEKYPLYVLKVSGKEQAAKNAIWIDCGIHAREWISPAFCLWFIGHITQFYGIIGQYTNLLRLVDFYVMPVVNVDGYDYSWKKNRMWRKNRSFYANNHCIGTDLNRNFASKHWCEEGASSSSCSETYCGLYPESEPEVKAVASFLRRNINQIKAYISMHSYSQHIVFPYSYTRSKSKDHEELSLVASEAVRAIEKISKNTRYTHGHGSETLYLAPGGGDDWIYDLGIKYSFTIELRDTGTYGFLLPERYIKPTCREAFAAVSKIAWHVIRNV

For the compound `CC(C)C[C@@H]1NC(=O)[C@H](C)NC(=O)[C@H](NC(=O)N[C@@H](CCCNC(=N)N)C(=O)O)CCCCNC(=O)[C@H](C)NC(=O)[C@H](CC(C)C)N(C)C1=O`, the IC50 (as a rule, the point on the concentration scale where inhibition reaches its midpoint) came out at 200 nM.

The values above are taken from patent US20080039376A1, “Use of Cyclic Anabaenopeptin-type Peptides for the Treatment of a Condition Wherein Inhibition of Carboxypeptidase U is Beneficial, Novel Anabaenopeptin Derivatives and Intermediates Thereof” (A[…], priority 2003, published 2008).
